Values quoted from earlier work as cited in patent US10737072B2, “Control catheters and methods for pulmonary suffusion and related therapies” (SUFFUSION TECHNOLOGIES LLC, priority 2012, dated 2020).

System: primary and metastatic cancer
Conditions: Neyazaki, et al., 1969; 27 cases; cited from earlier work

CO[C@@]12[C@H](COC(N)=O)C3=C(C(=O)C(C)=C(N)C3=O)N1C[C@@H]1N[C@@H]12 [Mitomycin C]
Chemical pneumonitis (number of cases): pneumonitis (1), cases
chest wall skin erythema (number of cases): erythema (1) cases
